Test system: phosphorylation of EML4-ALK
Experiment: phospho-ALK immunoblotting in Ba/F3 cells
Format: cell-based
Conditions: EML4-ALK harboring any of the four resistant mutations versus wild type; 1 hour

Q: With `C[C@@H](Oc1cc(-c2cnn(C3CCNCC3)c2)cnc1N)c1c(Cl)ccc(F)c1Cl` [crizotinib] as the compound, how does the “suppression of EML4-ALK phosphorylation” value read?
A: Its value is “less effective”.

From PMC3385512 (Science Translational Medicine, 2012)
